Patent US10889552B2, “Dihydroxybenzamide compound having HSP90 inhibitory activity or pharmaceutically acceptable salt thereof, and medical use thereof” (priority 2016, dated 2021)

System: H1975
Test: Cell proliferation / survival inhibition by MTS analysis (H1975)
Format: cell-based
Conditions: Homo sapiens
Experimental: Sk-Br3 (Korean cell line bank), a breast cancer cell, and H1975 cell (ATCC), a nonsmall cell lung cancer, were cultured in RPMI 1640 containing 25 mM HEPES (4-(2-hydroxyethyl)-1-piperazineethanesulfonic acid) and RPMI 1640 containing L-glutamine (containing streptomycin ([…]), penicillin (100 units/mL) and 10% fetal bovine serum (FBS)).
Next, non-metastatic lung cancer cells were treated with Compound 17 and the cell proliferation rate or cell survival rate was measured by MTS [3-(4,5-dimethylthiazol-2-yl)-5-(3-carboxymethoxyphenyl)-1-2H-tetrazolium, inner salt] analysis.
Cells were dispensed in 96-well plates at 3000 cell/well (Sk-Br3) and 2000 cell/well (H1975), and 100 μL of the medium was added per well and then was incubated overnight. […]
Cell proliferation was evaluated using the Promega Cell Titer 96 Aqueous One Solution cell proliferation assay. […]
Cell proliferation was confirmed by measuring the absorbance at 490 nm using a microplate reader (Tecan Infinite F200 Proplate reader).
Compound 17 at a concentration of 0, 0.01, 0.1, 1, 5, 10, 30, 50 or 70 μM or 1% DMSO vehicle (control group) was added to each well and incubated at 37° C. for 72 hours and the absorbance was measured at 490 nm and the measured value was expressed as a percentage of the absorbance of the cells cultured only with DMSO to confirm cell survival.

SMILES: O=C1CCN(C(=O)c2cc(Cl)c(O)cc2O)CC1 [Compound 11i, 1-(5-chloro-2,4-dihydroxybenzoyl)piperidin-4-one]
- inhibition at 10 µM (NCI-H1975, read-out: Inhibition rate at 10 μM (%)): 12.5%
- inhibition at 30 µM (NCI-H1975, read-out: Inhibition rate at 30 μM (%)): 48.2%
